# scFv variants of Ab-95 (light chain) against a SARS-CoV-2 spike peptide

From the AlphaSeq antibody data of Engelhart et al. 2022 (doi:10.1038/s41597-022-01779-4), copy in the FLAb collection.

Target peptide (SARS-CoV-2 spike, HR2 region): PDVDLGDISGINAS

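The library (AAYL52) carries one to three amino acid substitutions per variant, with no insertions or deletions. The assay is AlphaSeq: two haploid yeast populations carry antibody and antigen on their surface. After mating in shaken culture at 30 °C for 16 h, diploids were selected and their barcode pairs sequenced. Read counts were normalised to the haploid input and turned into Kd by a linear fit to BCL2-family pairs of known affinity, for each replicate. Each pool was mated in three replicate cultures.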

Each scFv is VH, the linker GGGGSGGGGSGGGGS, VL, as in the parent Ab-95, and differs from it in the CDRs of the light chain only.
VH: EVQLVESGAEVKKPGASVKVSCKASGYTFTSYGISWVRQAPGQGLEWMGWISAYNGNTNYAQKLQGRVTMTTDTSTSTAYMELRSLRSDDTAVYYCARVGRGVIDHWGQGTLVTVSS
VL: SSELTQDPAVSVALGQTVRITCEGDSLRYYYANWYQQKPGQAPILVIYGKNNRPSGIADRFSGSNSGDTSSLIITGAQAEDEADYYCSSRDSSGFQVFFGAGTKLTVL

Positions count from residue 1 of the parent VL; D25V puts V in place of D.
Numbers give log10(Kd / nM), so 0 is 1 nM and 3 is 1 µM. Smaller is tighter.
Replicates are averaged; those with no signal do not enter the mean.
A pair that was not seen in any replicate is written "no signal"; this usually means weak binding, but a binder can also be missed.
Nonspecific signal, from three strains lacking the peptide, appeared in 28% of pairings of library AAYL52, centred on 3.91 (5% of these signals below 2.90); values are not corrected for it.

D25V/Y31Q/Q96P: 1.84 (3 of 3 replicates).
S26Y/G49I/F98N: 4.10 (1 of 3 replicates).
L27Q/S89F/R90D: 3.76 (1 of 3 replicates).
G24N/D25Y/Y29G: 5.66 (1 of 3 replicates).
A32N/N33K/R90K: 3.07 (2 of 3 replicates).
N51T/S93F/V97S: 3.52 (3 of 3 replicates).
K50D/N52W/V97I: 2.98 (3 of 3 replicates).
Y31N/G49S/F95S: 1.66 (3 of 3 replicates).
Y31M/N51E/P54N: 2.71 (3 of 3 replicates).
D91W/G94W/F95N: 3.13 (3 of 3 replicates).
D25H/R53V/P54K: 3.47 (3 of 3 replicates).
R28T/S89L/F95V: 2.89 (3 of 3 replicates).
G24Y/K50P/N51M: 3.93 (1 of 3 replicates).
S26F/N51M/S89N: no signal (0 of 3 replicates).
D25C/R28F: 3.70 (1 of 3 replicates).
A32M/K50N/Q96P: 1.81 (3 of 3 replicates).
Y29M/S93M: 2.74 (3 of 3 replicates).
P54Y/S89H/Q96G: 3.92 (2 of 3 replicates).
G24S/R53V/R90I: 5.14 (2 of 3 replicates).
L27A/K50F/F98C: 4.16 (3 of 3 replicates).
Y29R/S55R/S93W: no signal (0 of 3 replicates).
Y30H/R53C/P54A: 1.61 (3 of 3 replicates).
S26Q/N33D/R90P: 3.71 (2 of 3 replicates).
N52I/F95R: 2.64 (3 of 3 replicates).
K50P/Q96Y: 2.37 (3 of 3 replicates).
D25H/P54G/Q96Y: 5.16 (1 of 3 replicates).
Y31M/N33C/S55C: 4.55 (2 of 3 replicates).
Y29S/R53V: 2.23 (3 of 3 replicates).
G49L/R53Y/S92V: no signal (0 of 3 replicates).
P54K/S88W/D91A: 3.56 (3 of 3 replicates).

The first 3 variants above that were never detected:

changes	mean, log10 nM	replicates with signal
S26F/N51M/S89N	no signal	0 of 3
Y29R/S55R/S93W	no signal	0 of 3
G49L/R53Y/S92V	no signal	0 of 3